Measured values reported in doi:10.1101/2024.10.10.617599v1 (biorxiv, 2024).

Sequences of proteins named here, by UniProt entry; tags and fusion partners are left off. A change or cut given only in a name is not applied to a line headed by its entry.
UniProt Q9H244: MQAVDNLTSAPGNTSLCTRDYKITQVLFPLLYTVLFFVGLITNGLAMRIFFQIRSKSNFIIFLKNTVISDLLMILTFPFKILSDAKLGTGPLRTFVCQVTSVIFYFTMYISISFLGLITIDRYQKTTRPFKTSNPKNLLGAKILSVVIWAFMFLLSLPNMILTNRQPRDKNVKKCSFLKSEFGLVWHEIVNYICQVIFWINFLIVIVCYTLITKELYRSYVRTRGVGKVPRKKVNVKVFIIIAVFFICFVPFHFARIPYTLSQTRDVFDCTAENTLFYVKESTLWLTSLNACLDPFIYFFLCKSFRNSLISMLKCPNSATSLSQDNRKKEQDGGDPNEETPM

Target: hP2Y12R (Homo sapiens, UniProt Q9H244)
Assay: radioligand saturation binding, HEK […] membranes

Kd: 3.12 ± 0.7 nM
Structure (SMILES): CCOC(=O)c1cc(C#N)c(N2CC(NC(=O)NS(=O)(=O)c3ccc(Cl)s3)C2)nc1C [AZ12464237, Ethyl 6-(3-(3-((5-chlorothiophen-2-yl)sulfonyl)ureido)azetidin-1-yl)-5-cyano-2-methylnicotinate]
